# Patent US4628089A, “Pyrido(2,3-D)pyrimidines” (Southern Research Institute, priority 1985, dated 1986)
# Tested on: lymphocytic leukemia P388
# Assay: Activity against lymphocytic leukemia P388 in mice
# Type: in vivo, mouse (CDF1 mice)
# Settings: 2 mg/kg; ip, qd 1-9 days; 10^6 P388 cells ip, CDF1 mice
smiles,measurement,value
"CN(Cc1cnc2nc(N)nc(N)c2n1)c1ccc(C(=O)N[C@@H](CCC(=O)O)C(=O)O)cc1 [Methotrexate, reference compound]",% ILS,61%
